The values below come from patent EP4837907A1, “NOVEL COMPOUND USED AS CBP/P300 INHIBITOR, AND PHARMACEUTICAL COMPOSITION FOR PREVENTING OR TREATING CANCER, INFLAMMATORY DISORDERS, OR AUTOIMMUNE DISEASES COMPRISING SAME AS ACTIVE INGREDIENT” (dated 2026).

Chains of the proteins cited; added tags and fusions are not shown. Residues count along the entry.
UniProt Q92793, 1085-1192 limits assumed: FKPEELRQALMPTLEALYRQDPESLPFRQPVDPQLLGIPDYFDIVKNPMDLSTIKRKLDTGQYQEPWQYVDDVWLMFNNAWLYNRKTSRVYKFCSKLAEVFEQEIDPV

For one experiment, the target named is BRD4 (BD1) protein (Homo sapiens, UniProt O60885). The experiment in a line: BRD4 inhibitory activity, TR-FRET assay of the BRD4 bromodomain. Particulars: read-out: BRD4 (BD1) IC50, BRD4 (BD1) protein 7.5 nM, Ac-H4 peptide 15 nM, room temperature 2 hours. On the procedure:
BRD4 inhibitory activity was measured using a time resolved fluorescence resonance energy transfer (TR-FRET) experiment to verify the activity of BRD4 bromodomain.
(§1) The assay was performed in a final volume of 14 µl, optimized based on a CREBBP time resolved fluorescence resonance energy transfer (TR-FRET) assay kit (BPS Bioscience, cat. 32613) to maximize an assay window, and performed in a final volume of 14 µl, while maximizing the assay window. A TR-FRET fluorescence acceptor and a Tb donor were diluted in an assay buffer containing 2-[4-(2-hydroxyethyl)piperazin-1-yl]ethanesulfonic acid (hereafter, referred to as an assay buffer, BPS Bioscience, cat. 33012), and 3 µl of each solution was transferred to all wells of a white 384-low-volume well plate (Corning, cat. 4513). 2 µl of 4X Ac-H4 peptide (final concentration 15 nM) was transferred to high control wells and test wells. Each compound was prepared at 10 concentration points by serially diluting 3-fold from the highest concentration in a dimethyl sulfoxide solvent. The compound at each concentration was then diluted in the assay buffer to prepare a diluted compound solution that was 4-fold more concentrated than the final concentration. 2 µl of each compound or dimethyl sulfoxide prepared in this way was distributed into an assay plate so that the final test concentration was a minimum of 0.5 µM to a maximum of 10 µM (final DMSO concentration 1%). 6 µL of 1X assay buffer was added to low control wells and 2 µl was added to high control and test wells. Then, 2 µl of 4X BRD4 (BD1) protein (final concentration 7.5 nM, BPS bioscience, cat 31040) was added to initiate a PPI reaction. The plate was reacted at room temperature for 2 hours before measuring the signal. The TR-FRET signal was measured using an EnVision Multilabel plate reader (PerkinElmer; Mirror LNACE/DELFIA Dual/Bias). For data analysis, the values of each well were obtained using the TR-FRET ratio ((Signal 665 nm/Signal 615 nm) × 20000). Data analysis was performed using the TR-FRET ratio ((Signal 665 nm/Signal 615 nm) × 20000). Data were reported as percent inhibition compared to control wells based on the following equation: %Activity = ((FRETcompound - FRETLow av)/(FRETHigh av - FRETLow av)) × 100. IC50 analysis was determined by standard 4 parameter curve fitting according to an algorithm using GraphPad Prism 7.0 (GraphPad Software Inc., La Jolla, CA, USA). All data are expressed as mean ± standard error of the mean (SEM).
(In TR-FRET formats the signal depends on donor and acceptor labels being close together.)

The next experiment addresses CBP BRD protein (Homo sapiens, UniProt Q92793). The experiment in a line: CBP inhibitory activity, TR-FRET assay of the CBP bromodomain. The conditions noted are these: read-out: CBP BRD IC50, CBP BRD protein 7.5 nM, Ac-H4 peptide 85 nM, room temperature 2 hours. As for the experimental part: A time resolved fluorescence resonance energy transfer (TR-FRET) experiment was used to verify the activity of CBP bromodomain.
as §1, with “Bioscience, cat. 32619) to maximize” for “Bioscience, cat. 32613) to maximize”, “(final concentration 85 nM) was” for “(final concentration 15 nM) was”, “µM (final dimethyl sulfoxide concentration 1%).” for “µM (final DMSO concentration 1%).”, “of 4X CBP BRD protein (final” for “of 4X BRD4 (BD1) protein (final”, “bioscience, cat 31128) was added” for “bioscience, cat 31040) was added”, “obtained using a TR-FRET ratio” for “obtained using the TR-FRET ratio”

Where only a bound is given, the exact number is not on record here.

For orientation: IC50 means the concentration at which inhibition is half-maximal. As to `CNS(=O)(=O)c1ccc2nc(-c3cccc4ccncc34)n(-c3ccc4c(c3)n(C)c(=O)n4C)c2c1`, the IC50 at BRD4 (BD1) protein was greater than 5 µM; on CBP BRD protein, 0.5 to 5 µM.

For the molecule `Cc1ccc2c(-c3nc4c(N(C)CC5CCN(C6CCCCC6)C5)ncnc4n3-c3ccc4c(c3)n(C)c(=O)n4C)c[nH]c2c1` (centres unmarked), the IC50 was 0.5 to 5 µM at BRD4 (BD1) protein and less than 0.5 µM at CBP BRD protein.

Consider `CNS(=O)(=O)c1ccc2nc(-c3c[nH]c4cc(C)ccc34)n(-c3cccc4c3n(C)c(=O)c(=O)n4C)c2c1`, for which the IC50 on BRD4 (BD1) protein and at CBP BRD protein was greater than 5 µM in each case.

As for `CNS(=O)(=O)c1ccc2nc(-c3ccc(O)cc3)n(-c3ccc4c(c3)n(C)c(=O)n4C)c2c1`, the IC50 on BRD4 (BD1) protein and on CBP BRD protein was 0.5 to 5 µM each time.

Regarding `Cc1ccc2c(-c3nc4ccc(-c5cnn(C)c5)cc4n3-c3ccc4c(c3)n(C)c(=O)n4C)c[nH]c2c1`, the IC50 on BRD4 (BD1) protein and at CBP BRD protein was greater than 5 µM in each case.

As to `CNS(=O)(=O)c1ccc2nc(-c3ccccn3)n(-c3ccc4c(c3)n(C)c(=O)n4C)c2c1`, the IC50 at BRD4 (BD1) protein and at CBP BRD protein was greater than 5 µM throughout.

For `CNS(=O)(=O)c1ccc2nc(-c3c[nH]c4cc(C)ccc34)n(-c3cc(NC(C)=O)cc(C4CCOCC4)c3)c2c1`, the IC50 was greater than 5 µM at BRD4 (BD1) protein and less than 0.5 µM at CBP BRD protein.

For the molecule `CNS(=O)(=O)c1ccc2nc(-c3cncn3C)n(-c3cccc4c3n(C)c(=O)n4C)c2c1`, the IC50 at BRD4 (BD1) protein and at CBP BRD protein was greater than 5 µM throughout.

Consider `Cc1ccc2c(-c3nc4ccc(S(C)(=O)=O)cc4n3-c3ccc4c(c3)n(C)c(=O)n4C)c[nH]c2c1`, for which the IC50 was greater than 5 µM on BRD4 (BD1) protein and 0.5 to 5 µM on CBP BRD protein.

As to `CNS(=O)(=O)c1ccc2nc(-c3c[nH]c4cc(C)ccc34)n(-c3ccc4c(c3)n(C)c(=O)n4C)c2c1`, the figures for the IC50 at BRD4 (BD1) protein and on CBP BRD protein were greater than 5 µM and 0.5 to 5 µM, respectively.

As for `CNS(=O)(=O)c1ccc2nc(-c3cccn3Cc3cc(OC)ccc3Br)n(-c3ccc4c(c3)n(C)c(=O)n4C)c2c1`, the results for the IC50 on BRD4 (BD1) protein and at CBP BRD protein were 0.5 to 5 µM and greater than 5 µM, respectively.

For the molecule `COC(=O)c1ccc2nc(-c3c[nH]c4cc(C)ccc34)n(-c3cc(NC(C)=O)cc(C4CCOCC4)c3)c2c1`, the IC50 on BRD4 (BD1) protein and on CBP BRD protein was greater than 5 µM in each case.

For `CNS(=O)(=O)c1ccc2nc(-c3cccn3Cc3c(F)cccc3F)n(-c3ccc4c(c3)n(C)c(=O)n4C)c2c1`, the IC50 at BRD4 (BD1) protein and on CBP BRD protein was greater than 5 µM in each case.

For `CNS(=O)(=O)c1ccc2nc(-c3c[nH]c4cc(C)ccc34)n(-c3cccc(-c4c(C)noc4C)c3)c2c1`, the IC50 on BRD4 (BD1) protein and on CBP BRD protein was greater than 5 µM throughout.

For the molecule `Cc1ccc2c(-c3nc4ccc(C(=O)O)cc4n3-c3ccc4c(c3)n(C)c(=O)n4C)c[nH]c2c1`, the IC50 on BRD4 (BD1) protein and on CBP BRD protein was greater than 5 µM each time.

For `CNS(=O)(=O)c1ccc2nc(-c3c[nH]c4cc(C)ccc34)n(-c3cccc4c3n(C)c(=O)n4C)c2c1`, the 50% inhibitory concentration (IC50) at BRD4 (BD1) protein and on CBP BRD protein was greater than 5 µM each time.
